Measurements published in US20260384451A1, “6-ARYL IMIDAZO[2,1-B]THI/OpXAZOLE-2-CARBOXILIC ACID DERIVATIVE AND PHARMACEUTICAL COMPOSITION FOR TREATING ALZHEIMER'S DISEASE CONTAINING SAME AS ACTIVE INGREDIENT” (published 2026).
Read-outs that look alike come from different tables or passages of the source.

Protein sequences, listed by entry. Tags and fused reporters are not part of them.
UniProt P53779, whole entry: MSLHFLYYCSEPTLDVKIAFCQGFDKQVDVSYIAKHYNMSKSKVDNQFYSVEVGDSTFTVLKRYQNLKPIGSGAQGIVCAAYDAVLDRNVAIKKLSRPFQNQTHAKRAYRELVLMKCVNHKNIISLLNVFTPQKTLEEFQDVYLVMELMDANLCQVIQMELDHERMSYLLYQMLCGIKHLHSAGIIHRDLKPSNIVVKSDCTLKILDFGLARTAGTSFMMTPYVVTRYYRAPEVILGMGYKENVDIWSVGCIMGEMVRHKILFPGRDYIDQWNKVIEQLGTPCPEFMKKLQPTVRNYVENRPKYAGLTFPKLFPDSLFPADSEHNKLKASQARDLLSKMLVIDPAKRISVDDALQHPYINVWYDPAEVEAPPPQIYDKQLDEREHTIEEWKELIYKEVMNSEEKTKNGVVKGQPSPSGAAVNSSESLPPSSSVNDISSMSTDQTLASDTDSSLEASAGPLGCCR
UniProt P45984, whole entry: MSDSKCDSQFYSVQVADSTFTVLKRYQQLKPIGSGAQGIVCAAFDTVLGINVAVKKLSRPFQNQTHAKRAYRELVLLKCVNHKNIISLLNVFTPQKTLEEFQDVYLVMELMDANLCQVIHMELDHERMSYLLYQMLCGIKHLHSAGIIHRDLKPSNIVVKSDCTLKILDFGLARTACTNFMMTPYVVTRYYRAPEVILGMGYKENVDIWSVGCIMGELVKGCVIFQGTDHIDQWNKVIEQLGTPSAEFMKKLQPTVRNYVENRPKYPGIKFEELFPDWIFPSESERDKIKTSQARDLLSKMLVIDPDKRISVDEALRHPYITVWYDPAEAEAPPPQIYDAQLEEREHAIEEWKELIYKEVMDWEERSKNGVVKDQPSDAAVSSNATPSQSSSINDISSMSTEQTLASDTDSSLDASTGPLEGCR
UniProt P45983, whole entry: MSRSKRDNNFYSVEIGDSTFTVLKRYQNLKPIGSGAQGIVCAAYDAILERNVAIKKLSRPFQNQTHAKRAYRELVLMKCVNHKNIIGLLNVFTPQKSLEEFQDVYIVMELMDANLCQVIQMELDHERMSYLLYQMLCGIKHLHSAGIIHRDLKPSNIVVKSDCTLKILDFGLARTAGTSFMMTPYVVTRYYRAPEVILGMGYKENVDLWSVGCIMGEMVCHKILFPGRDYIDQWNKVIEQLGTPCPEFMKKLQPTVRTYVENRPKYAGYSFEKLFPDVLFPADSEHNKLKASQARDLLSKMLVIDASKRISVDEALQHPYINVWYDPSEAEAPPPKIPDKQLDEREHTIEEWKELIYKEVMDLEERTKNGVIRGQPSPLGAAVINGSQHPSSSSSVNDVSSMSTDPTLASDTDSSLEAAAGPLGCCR

Experiments:
JNK3 = JNK3 (Homo sapiens, UniProt P53779); assay: In vitro JNK3 inhibitory activity assay
JNK2 = JNK2 (Homo sapiens, UniProt P45984); assay: Activity of major compounds against JNK1/2/p38α: JNK2 (selectivity versus JNK3); conditions: ratio of IC50 JNK2/JNK3
JNK1 = JNK1 (Homo sapiens, UniProt P45983); assay: Activity of major compounds against JNK1/2/p38α: JNK1 (selectivity versus JNK3); conditions: ratio of IC50 JNK1/JNK3
[1] = read-out: JNK3 inhibitory activity (IC50), Table 3, imidazo[2,1-b]oxazole derivatives, class symbols
[2] = read-out: JNK3 inhibitory activity (IC50), Table 7, imidazo[2,1-b]oxazole-based covalent inhibitors, class symbols
[3] = read-out: JNK3 inhibitory activity (IC50), Table 1, imidazo[2,1-b]thiazole derivatives, class symbols
[4] = read-out: JNK3 inhibitory activity (IC50), Table 6, imidazo[2,1-b]thiazole-based covalent inhibitors, class symbols
[5] = read-out: JNK3 inhibitory activity (IC50), Table 2, imidazo[2,1-b]thiazole derivatives, class symbols
[6] = read-out: JNK3 inhibitory activity (IC50), Table 5, imidazo[2,1-b]oxazole derivatives, class symbols

`NC(=O)c1cn2c(-c3ccnc(NC4CCN(C(=O)C5CC5)CC4)n3)c(-c3ccc4ccccc4c3)nc2o1` showed an IC50 (JNK3; read-out: JNK3 inhibitory activity (IC50), Table 4, imidazo[2,1-b]oxazole derivatives, class symbols) of under 1 nM.
`CN(C)C(=O)N1CCC[C@H](Nc2nccc(-c3c(-c4ccc5ccccc5c4)nc4oc(C(N)=O)cn34)n2)C1` gave an IC50 (JNK3; [1]) of under 1 nM.
`CN(C)/C=C/C(=O)c1cn2c(-c3ccnc(NC4CCCCC4)n3)c(-c3ccc(F)c(Cl)c3)nc2o1` showed an IC50 (JNK3; [2]) of 1 to 30 nM.
`CNC(=O)c1cn2c(-c3ccnc(N[C@H]4CCCN(C(=O)C5CC5)C4)n3)c(-c3ccc(F)c(C(F)(F)F)c3)nc2s1` showed an IC50 (JNK3; [3]) of 30 to 1000 nM.
Compound `NC(=O)c1cn2c(-c3ccnc(N[C@H]4CCCN(C(=O)C5CC5)C4)n3)c(-c3ccc(F)c(Cl)c3)nc2o1` has an IC50 (JNK3; [1]) of under 1 nM.
Compound `C=CC(=O)Nc1cn2c(-c3ccnc(NC4CCOCC4)n3)c(-c3ccc(F)c(Cl)c3)nc2s1` has an IC50 (JNK3; [4]) of 1 to 30 nM.
Work on `C#CCNC(=O)c1cn2c(-c3ccnc(NC4CCOCC4)n3)c(-c3ccc4ccccc4c3)nc2o1` yielded an IC50 (JNK3; [2]) of 1 to 30 nM.
Work on `CN(C)/C=C/C(=O)c1cn2c(-c3ccnc(NC4CCOCC4)n3)c(-c3ccc(F)c(Cl)c3)nc2o1` yielded an IC50 (JNK3; [2]) of under 1 nM.
Compound `NC(=O)c1cn2c(-c3ccnc(NC4CCOCC4)n3)c(-c3ccc(Cl)c(Cl)c3)nc2s1` has an IC50 (JNK3; [5]) of 1 to 30 nM.
In the case of `CNC(=O)c1cn2c(-c3ccnc(N[C@H]4CCCN(C(=O)C5CC5)C4)n3)c(-c3ccc(Cl)c(Cl)c3)nc2o1`, the IC50 (JNK3; [1]) is reported as over 10000 nM.
For `NC(=O)c1cn2c(-c3ccnc(N[C@@H]4CCCN(C(=O)C5CC5)C4)n3)c(-c3ccc(Cl)c(Cl)c3)nc2s1`, the IC50 (JNK3; [3]) was 1 to 30 nM.
In the case of `CNC(=O)c1cn2c(-c3ccnc(N[C@H]4CCCN(C(=O)C5CC5)C4)n3)c(-c3ccc4ccccc4c3)nc2o1`, the IC50 (JNK3; [1]) is reported as under 1 nM.
In the case of `CNC(=O)c1cn2c(-c3ccnc(N[C@H]4CCCN(C(=O)N(C)C)C4)n3)c(-c3ccc(F)c(C(F)(F)F)c3)nc2s1`, the IC50 (JNK3; [3]) is reported as 30 to 1000 nM.
Work on `C=CC(=O)Nc1cn2c(-c3ccnc(NC4CCCCC4)n3)c(-c3ccc(F)c(Cl)c3)nc2o1` yielded an IC50 (JNK3; [2]) of under 1 nM.
With `C#CCNC(=O)c1cn2c(-c3ccnc(NC4CCCCC4)n3)c(-c3ccc(Cl)c(Cl)c3)nc2s1` the IC50 (JNK3; [4]) was 1 to 30 nM.
`C#CCNC(=O)c1cn2c(-c3ccnc(NC4CCCCC4)n3)c(-c3ccc(F)c(Cl)c3)nc2s1` gave an IC50 (JNK3; [4]) of 1 to 30 nM.
Compound `CCOC(=O)c1cn2c(-c3ccnc(NC4CCCCC4)n3)c(-c3ccc(Cl)c(Cl)c3)nc2o1` has an IC50 (JNK3; [6]) of under 1 nM.
With `CCOC(=O)c1cn2c(-c3ccnc(NC4CCCCC4)n3)c(-c3ccc(Cl)c(Cl)c3)nc2s1` the IC50 (JNK3; [5]) was 30 to 1000 nM.
Compound `CCOC(=O)c1cn2c(-c3ccnc(N[C@H]4CCCN(C(=O)N(C)C)C4)n3)c(-c3ccc(Cl)c(Cl)c3)nc2s1` has an IC50 (JNK3; [3]) of 30 to 1000 nM.
With `C#CCNC(=O)c1cn2c(-c3ccnc(NC4CCCCC4)n3)c(-c3ccc4ccccc4c3)nc2s1` the IC50 (JNK3; [4]) was 1 to 30 nM.
`CCOC(=O)c1cn2c(-c3ccnc(NC4CCCCC4)n3)c(-c3ccc4ccccc4c3)nc2o1` gave an IC50 (JNK3; [6]) of under 1 nM.
For `CCOC(=O)c1cn2c(-c3ccnc(N[C@H]4CCCN(C(=O)C5CC5)C4)n3)c(-c3ccc(F)c(Cl)c3)nc2o1`, the IC50 (JNK3; [1]) was under 1 nM.
`CCOC(=O)c1cn2c(-c3ccnc(N[C@@H]4CCCN(C(=O)C5CC5)C4)n3)c(-c3ccc4c(c3)OCCO4)nc2o1` gave an IC50 (JNK3; [1]) of 30 to 1000 nM.
Compound `CN(C)/C=C/C(=O)c1cn2c(-c3ccnc(NC4CCCCC4)n3)c(-c3ccc4ccccc4c3)nc2s1` has an IC50 (JNK3; [4]) of 1 to 30 nM.
With `CCOC(=O)c1cn2c(-c3ccnc(N[C@@H]4CCCN(C(=O)C5CC5)C4)n3)c(-c3ccc(Cl)c(Cl)c3)nc2o1` the IC50 (JNK3; [1]) was under 1 nM.
In the case of `CN(C)C(=O)N1CCC[C@@H](Nc2nccc(-c3c(-c4ccc5c(c4)OCCO5)nc4sc(C(N)=O)cn34)n2)C1`, the IC50 (JNK3; [3]) is reported as under 1 nM.
In the case of `CNC(=O)c1cn2c(-c3ccnc(NC4CCCCC4)n3)c(-c3ccc4ccccc4c3)nc2s1`, the IC50 (JNK3; [5]) is reported as 1 to 30 nM.
In the case of `CN(C)C(=O)N1CCC[C@@H](Nc2nccc(-c3c(-c4ccc5ccccc5c4)nc4sc(C(N)=O)cn34)n2)C1`, the IC50 (JNK3; read-out: JNK3, Table 8, class symbols) is reported as 1 to 30 nM, the IC50 (JNK3; [3]) is reported as 1 to 30 nM and the “Selectivity (IC50 fold) JNK2/JNK3” value (JNK2) is reported as 2 fold. The “Selectivity (IC50 fold) JNK1/JNK3” value (JNK1) was 10 fold.
For `CCOC(=O)c1cn2c(-c3ccnc(NCCOC)n3)c(-c3ccc4ccccc4c3)nc2s1`, the IC50 (JNK3; [5]) was 30 to 1000 nM.
